# Hit rate of the full screen: of about 190,000 compounds, about 400 (0.21%) were called active. These results got no clear call from the source, so the numbers are uncertain.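 Rule for the calls: active = percent activity GTP binding at least 20 points away from the 100% baseline, either down as inhibitor or up as activator; inconclusive = compound flagged as likely green fluorescent from well-wide comparison; inactive = the rest.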
# By UniProt entry, the sequences of proteins in these tests, tags left out.
# UniProt P60953, whole entry, looked up: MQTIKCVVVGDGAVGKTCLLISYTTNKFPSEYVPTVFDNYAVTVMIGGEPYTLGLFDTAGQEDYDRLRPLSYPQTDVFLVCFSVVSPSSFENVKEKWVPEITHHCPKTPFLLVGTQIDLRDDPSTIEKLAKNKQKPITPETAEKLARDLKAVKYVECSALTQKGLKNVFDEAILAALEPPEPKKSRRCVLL
# Target: Cell division control protein 42 homolog (Homo sapiens) (UniProt P60953)
# Experiment: modulators of GTP binding to wildtype Cdc42, primary screen, biochemical, multiplex bead flow cytometry, Bodipy-GTP (AID 761);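 note: median bead fluorescence of bound Bodipy-FL-GTP at 100 nM; 0% = excess unlabeled GTP control and 100% = no compound control; below 100% means less GTP binding so inhibitor and above means activator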
# Settings: GST-Cdc42 beads, at 10 µM, actives lie on both sides
row,Structure (SMILES),percent activity (GTP binding)
1,O=C(OC1CN2CCC1CC2)C12CC3CC(CC(C3)C1)C2 (stereo not drawn),inconclusive: 102%
2,COc1ccccc1OP(=O)(Nc1ccc(C)cn1)Oc1ccccc1OC,inconclusive: 89%
3,CC(C)=N/N=C(\N)N[N+](=O)[O-],inconclusive: 94%
